Measurements published in patent US20240199612A1, “IMIDAZOPYRIDINYL INHIBITORS OF PLASMA KALLIKREIN” (SHIRE HUMAN GENETIC THERAPIES, INC., priority 2021, published 2024).

Sequences of proteins named here, by UniProt entry; tags and fusion partners are left off. Residues count along the entry.
UniProt P03952, 391-638 limits assumed: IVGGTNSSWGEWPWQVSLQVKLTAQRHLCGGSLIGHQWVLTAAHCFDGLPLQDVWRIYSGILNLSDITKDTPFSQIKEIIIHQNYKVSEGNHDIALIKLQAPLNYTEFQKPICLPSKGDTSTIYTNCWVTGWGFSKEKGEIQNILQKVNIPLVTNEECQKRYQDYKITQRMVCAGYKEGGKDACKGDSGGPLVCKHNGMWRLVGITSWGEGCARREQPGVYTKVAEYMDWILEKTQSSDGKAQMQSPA
UniProt P03952, 20-390 partner limits assumed: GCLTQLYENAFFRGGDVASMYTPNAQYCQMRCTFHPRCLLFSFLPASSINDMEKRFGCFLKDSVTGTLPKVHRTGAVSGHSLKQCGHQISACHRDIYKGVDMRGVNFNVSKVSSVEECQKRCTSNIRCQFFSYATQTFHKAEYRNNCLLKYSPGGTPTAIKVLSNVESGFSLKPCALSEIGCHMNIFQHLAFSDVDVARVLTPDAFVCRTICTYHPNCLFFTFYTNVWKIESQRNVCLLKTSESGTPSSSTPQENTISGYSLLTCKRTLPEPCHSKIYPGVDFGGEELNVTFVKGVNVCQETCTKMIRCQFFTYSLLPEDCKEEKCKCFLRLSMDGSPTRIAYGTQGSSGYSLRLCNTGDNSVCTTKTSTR

Target: human activated kallikrein enzyme (Homo sapiens, UniProt P03952)
Assay: Inhibition of human activated plasma kallikrein, fluorogenic peptide substrate (PFR-AMC) assay, 500 pM enzyme format
Conditions: read-out: Primary Dose Response Assay: Average EC50; format with 500 pM activated kallikrein, 300 uM PFR-AMC, 30 min preincubation, 10 min reaction, room temperature

- EC50: > 9 µM
Structure (SMILES): O=C(Nc1nccc2c1cnn2Cc1cn2cc(C3CC3)ccc2n1)OCc1cccc(Cl)c1
